In US5283247A, “Anticonvulsant substituted quinazolones” (Research Corporation Technologies, Inc., priority 1992, dated 1994):

Test: behavioral observations / gross CNS effects in mice
Format: in vivo, male mice (Swiss-Webster)
Details: 100 mg/kg ip, after injection of test compounds
Description: The mice were divided in groups of 10, keeping the group weights equal as far as possible. The quinazolones shown in Table 2 as well as methaqualone were injected ip (100 mg/kg) in a 5% aqueous suspension of gum acacia to one group of 10 animals. One hour after the administration of quinazolones, the mice were injected with pentylenetetrazol (90 mg/kg) sc under the loose skin of the back. […] The mice were then observed for the following 60 minutes for the occurrence of seizures. One episode of clonic spasm which persisted for a minimum period of 5 seconds was considered a threshold convulsion. Transient intermittent jerks or tremulousness were not taken into account. Animals devoid of even a threshold convulsion during the period of 60 minutes were considered protected. […] Mortality was recorded 24 hours after the pentylenetetrazol injection. After the injection of test compounds, behavioral observations were also made. […] 2 and compound no.

Cc1ccccc1-n1c(C)nc2ccccc2c1=O [Compound 1, 2-methyl-3-o-tolyl-4-quinazolone]
Behavioral Observations: deep hynosis
